{"source": "patent US20070036775A1", "about": "“Method of modulating or examining Ku70 levels in cells” (priority 2001, published 2007)", "key": {"Caspase": {"tested_on": "Caspase", "assay": "Bax-induced Caspase activation (DEVD-afc cleavage) in HEK293T cells", "assay_type": "cell-based", "details": "one day following transfection", "protocol": "(§1) FIG. 2A: Ku70 suppressed STS-induced apoptosis in Hela cells. Hela cells (10^6 cells) were transfected with 0.5 μg pEGFP and 1.0 μg pCMV-2B (Vector), pCMV-2B-Ku70 (Ku70 wt), pCMV-2B-Ku701-535 (Ku701-535), or pCMV-2B-Ku70536-609 (Ku70536-609). One day following transfection, cells were treated with 200 nM STS and the number of apoptotic cells was counted as described in FIG. 1 after 24 hours of STS treatment. FIG. 2B: Ku70 suppressed UVC-induced apoptosis. HEK293T cells (10^6 cells) were transfected with 0.5 μg PEGFP and 1.0 μg pCMV-2B (Vector), pCMV-2B-Ku70 wt (Ku70 wt), or pCMV-2B-Ku70536-609 (Ku70536-609). One day following transfection, cells were exposed to 200 J/m^2 of UVC-irradiation. After 24 hours, apoptotic cells were counted as described in FIG. 1. FIG. 2C: Ku70 suppressed Bax-induced Caspase activation. […] Caspase activity was measured one day following transfection as described in Experimental Procedure. […] Caspase activity was assessed as described in Experimental Procedure. […] Cytochrome c released from mitochondria into cytosol was analyzed by subcellular fractionation followed by Western blot analysis of Cytochrome c (Cyt c) as well as mitochondrial FoF1-ATP-synthase subunit F1α (F1α) as described in Experimental Procedure. […]"}, "Cytochrome c": {"tested_on": "Cytochrome c", "assay": "Cytochrome c release from mitochondria (subcellular fractionation, Western blot)", "assay_type": "cell-based", "protocol": "as §1"}}}
{"substance": "Ku70: human full length Ku70, 70 kDa subunit of Ku-complex (609 amino acids), expressed from pCMV-2B plasmid", "values": [{"measurement": "effect on Bax-induced Caspase activation", "setting": "Caspase", "value": "suppressed"}, {"measurement": "Cytochrome c release from mitochondria induced by Bax-expression", "setting": "Cytochrome c; HEK293T cells", "value": "attenuated"}, {"measurement": "Cytochrome c release from mitochondria in STS-treated HeLa cells and UVC-irradiated HEK293T cells", "setting": "Cytochrome c; data not shown", "value": "blocked Cytochrome c release from mitochondria"}]}
